Patent US5721106A, “In Vitro method for screening β-amyloid deposition” (Regents of the University of Minnesota, priority 1994, dated 1998)

How the values were obtained:
silk = assay: deposition of 30 pM tracer onto ceilan katia yarn, pH 8.5, 37° C., gamma counting
[1] = target: amyloid plaques in Alzheimer's disease brain tissue (homogenates and thin sections); assay: filter binding on AD tissue homogenates, gamma counting

on-rate (cpm ^125 I/hour/mg silk) (silk): 153
percent of tracer bound [1]: 20%
Substance: ^125 I-βA(1-40)-OH (^125 I-labelled human β-amyloid peptide^1-40)
